The values that follow come from patent US6262094A (priority 1999, dated 2001).

≈ marks a conversion by molar mass, not a printed value.

For the assay, the system named is KB-V1 (DSM ACC 149), human cervix carcinoma, multidrug-resistant. Kind of assay: Growth inhibition, MTT reduction in microtiter plates. To be noted: KB-V1, multiresistant cell line, incubation period of 5 days. It is filed as cell-based. On the technique in general: Tetrazolium assays rely on reduction of a dye to a coloured formazan, in cell work by metabolically active cells.
Consider `C=Cc1nc(/C=C(\C)[C@@H]2C[C@@H]3O[C@@H]3CCC[C@H](C)[C@H](O)[C@@H](C)C(=O)C(C)(C)[C@@H](O)CC(=O)O2)cs1` [20-vinyl-epo A, [1S-[1R*,3R*(E),7R*,10S*,11R*,12R*,16S*]]-3-[2-(2-Ethenyl-4-thiazolyl)-1-methylethenyl]-7,11-dihydroxy-8,8,10,12-tetramethyl-4,17-dioxabicyclo[14.1. 0]heptadecane-5,9-dione], for which the “IC50 KB-V1* cervix” value is recorded as 3 ng/mL (≈ 5.93 nM).

Take `C/C(=C\c1csc(CCl)n1)[C@@H]1C[C@@H]2O[C@@H]2CCC[C@H](C)[C@H](O)[C@@H](C)C(=O)C(C)(C)[C@@H](O)CC(=O)O1` [21-chloro-epo A]: the “IC50 KB-V1* cervix” value was 8 ng/mL (≈ 15.1 nM).

As to `C/C(=C\c1csc(CN)n1)[C@@H]1C[C@@H]2O[C@]2(C)CCC[C@H](C)[C@H](O)[C@@H](C)C(=O)C(C)(C)[C@@H](O)CC(=O)O1` [21-amino-epo B, [1S-[1R*,3R*(E),7R*,10S*,11R*,12R*,16S*]]-3-[2-[2-(Aminomethyl)-4-thiazolyl]-1-methylethenyl]-7,11-dihydroxy-8,8,10,12,16-pentamethyl-4,17-dioxabicyclo[14.1.0]heptadecane-5,9-dione], the “IC50 KB-V1* cervix” value is 1.5 ng/mL (≈ 2.87 nM).

As for `C/C(=C\c1csc(CN=[N+]=[N-])n1)[C@@H]1C[C@@H]2O[C@]2(C)CCC[C@H](C)[C@H](O)[C@@H](C)C(=O)C(C)(C)[C@@H](O)CC(=O)O1` [21-azido-epo B, [1S-[1R*,3R* (E),7R*, 10S*,11R*,12R*,16S*]]-3-[2-[2-(Azidomethyl)-4-thiazolyl]-1-methylethenyl]-7,11-dihydroxy-8,8,10,12,16-pentamethyl-4,17-dioxabicyclo[14.1. 0]heptadecane-5,9-dione], the “IC50 KB-V1* cervix” value was determined as 0.5 ng/mL (≈ 0.911 nM).

For `C/C(=C\c1csc(CN)n1)[C@@H]1C[C@@H]2O[C@@H]2CCC[C@H](C)[C@H](O)[C@@H](C)C(=O)C(C)(C)[C@@H](O)CC(=O)O1` [21-amino-epo A], the “IC50 KB-V1* cervix” value is recorded as 30 ng/mL (≈ 59 nM).
